The record followed here is paper PMC5823691 (Journal of medicinal chemistry, 2017).

Sequences of proteins named here, by UniProt entry; tags and fusion partners are left off. Residues count along the entry.
UniProt P29965, 113-261 limits assumed: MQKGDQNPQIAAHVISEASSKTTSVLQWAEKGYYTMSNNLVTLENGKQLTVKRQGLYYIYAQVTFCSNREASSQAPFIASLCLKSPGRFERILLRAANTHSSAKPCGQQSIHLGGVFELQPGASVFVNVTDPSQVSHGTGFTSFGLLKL

For the assay, the target named is human CD40–CD40L interaction (Homo sapiens, UniProt P29965). As to conditions: binding free energy per non-hydrogen atom.

Molecules are shown by their SMILES.

`O=C(Nc1ccc(-c2ccc(C(=O)Nc3cccc4cccc(S(=O)(=O)O)c34)cc2)cc1)c1ccc([N+](=O)[O-])cc1` [Compound 6, 8-(4’-(4-Nitrobenzamido)biphenyl-4-ylcarboxamido)naphthalene-1-sulfonic acid]: the “ligand efficiency (LE)” value is on record as 0.91–0.93 kJ/atom.
For the compound `COC(=O)c1ccc(C(=O)Nc2ccc(-c3ccc(C(=O)Nc4cccc5cccc(S(=O)(=O)O)c45)cc3)cc2)cc1` [Compound 10, 8-(4’-(4-(Methoxycarbonyl)benzamido)biphenyl-4-ylcarboxamido)naphthalene-1-sulfonic acid], the “ligand efficiency (LE)” value is given as 0.91–0.93 kJ/atom.
As for `O=C(Nc1ccc(-c2ccc(C(=O)Nc3ccc(C(=O)O)c4ccccc34)cc2)cc1)c1ccc([N+](=O)[O-])cc1` [Compound 11, 4-(4’-(4-Nitrobenzamido)biphenyl-4-ylcarboxamido)-1-naphthoic acid], the “ligand efficiency (LE)” value was 0.91–0.93 kJ/atom.
